Protein sequences, listed by entry. Tags and fused reporters are not part of them.
UniProt P23219, whole entry: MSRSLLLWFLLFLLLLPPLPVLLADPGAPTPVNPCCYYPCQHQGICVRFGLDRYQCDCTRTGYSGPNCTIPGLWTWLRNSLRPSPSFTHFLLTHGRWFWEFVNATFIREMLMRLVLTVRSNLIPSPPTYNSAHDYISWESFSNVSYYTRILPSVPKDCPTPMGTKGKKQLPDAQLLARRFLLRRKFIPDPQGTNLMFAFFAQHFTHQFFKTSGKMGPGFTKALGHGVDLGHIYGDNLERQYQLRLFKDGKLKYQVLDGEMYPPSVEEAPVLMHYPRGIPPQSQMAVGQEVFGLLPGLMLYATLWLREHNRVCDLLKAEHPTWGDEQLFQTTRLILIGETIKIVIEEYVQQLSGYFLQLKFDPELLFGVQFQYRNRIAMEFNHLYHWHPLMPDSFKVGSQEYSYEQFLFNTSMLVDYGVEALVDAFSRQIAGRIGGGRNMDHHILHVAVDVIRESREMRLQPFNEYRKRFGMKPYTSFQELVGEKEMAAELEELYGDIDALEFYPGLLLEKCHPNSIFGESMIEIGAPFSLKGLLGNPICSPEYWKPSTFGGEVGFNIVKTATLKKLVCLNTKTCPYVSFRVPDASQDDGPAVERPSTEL

In ChEMBL document CHEMBL4138130, “Effect of mofezolac-galactose distance in conjugates targeting cyclooxygenase (COX)-1 and CNS GLUT-1 carrier” (Eur J Med Chem, 2017):

Target: Prostaglandin G/H synthase 1 (Homo sapiens, UniProt P23219)
Experiment: Inhibition of human COX1 assessed as reduction in appearance of oxidized TMPD using arachidonic acid as substrate by colorimetric assay

IC50: 7.9 nM
SMILES: COc1ccc(-c2noc(CC(=O)O)c2-c2ccc(OC)cc2)cc1 [MOFEZOLAC]
